ChEMBL document CHEMBL4837242, “Discovery of Irbesartan Derivatives as BLT2 Agonists by Virtual Screening” (ACS Med Chem Lett, 2021)
Activity calls are given as the source filed them. No cut-off for these calls is given here.

Protein sequences, listed by entry. Tags and fused reporters are not part of them. Lines headed by an entry give the natural chain unless they say otherwise; changes in a name come on top.
UniProt Q15722: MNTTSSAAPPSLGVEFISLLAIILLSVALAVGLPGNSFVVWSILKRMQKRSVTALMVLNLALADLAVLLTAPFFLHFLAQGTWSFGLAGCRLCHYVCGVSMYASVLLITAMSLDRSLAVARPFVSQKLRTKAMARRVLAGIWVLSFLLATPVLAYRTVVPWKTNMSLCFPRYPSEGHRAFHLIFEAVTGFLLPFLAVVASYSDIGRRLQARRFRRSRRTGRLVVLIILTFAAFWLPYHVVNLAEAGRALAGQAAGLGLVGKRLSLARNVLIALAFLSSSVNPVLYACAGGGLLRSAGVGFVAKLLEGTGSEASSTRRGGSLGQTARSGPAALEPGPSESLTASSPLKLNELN

Target: Leukotriene B4 receptor 1 (Homo sapiens) (UniProt Q15722)
Test: Agonist activity at human BLT1 overexpressed in CHO-K1 cells assessed as accumulation of inositol monophosphate measured after 90 mins by HTRF assay
Type: functional, cell-based
Procedure, shortened: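 IP-One accumulation assay run in agonist mode, read-out inositol monophosphate as a measure of Gq activation; LTB₄ as reference agonist and positive control. EC₅₀ determinations done at least twice (n = 2).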

Activity	Structure (SMILES)
inactive	O=C(O)c1ccccc1-c1ccc(CN2C(=O)C3(CCCC3)N=C2Cc2ccccc2)cc1
inactive	CCCCC1=NC2(CCCC2)C(=O)N1Cc1ccc(-c2ccccc2C(=O)O)cc1
inactive	CCCCC1NC(C)(C)C(=O)N1Cc1ccc(-c2ccccc2-c2nnn[nH]2)cc1 (stereo not drawn)
